Source: PubChem BioAssay AID540303 (National Center for Advancing Translational Sciences (NCATS), 2011)
The entries are a selection whose mix differs from that of the whole data set. Results filed as inconclusive are left out. Active and inactive are the calls of the source. The call rests on the fitted dose curve; in most records, active means well fitted inhibition curve with a large enough effect; inconclusive means small, poorly fitted or top-dose-only effect; inactive means no such curve, though single readings can be large or run the other way; tested in mouse RAW 264.7 cells.

Experiment: qHTS for Inhibitors of Cell Surface uPA Generation; further: nearly all actives have a fitted effect of over 55% in size
Settings: cell surface uPA generation assay; series mostly up to 38.3 µM; activity change, negative = inhibition: at the top concentration
Description: The overall objective of this project is to perform a quantitative high throughput screen (qHTS) to identify novel compounds that inhibit the generation of cell surface urokinase activity. The urokinase plasminogen activator (uPA) is one of the two primary endogenous systems that mediate plasminogen activation into plasmin. Members of this system, including uPA and its receptor (uPAR), are overexpressed in several malignant tumors. This system plays a major role in adhesion, migration, invasion and metastasis of cancer cells. Small molecule inhibitors of the uPA system will serve as probes to understand the molecular mechanisms of the uPA cascade and better understanding the microenvironmental circumstances that facilitate the activation of plasminogen by uPA, and finally may provide novel candidate agents for anticancer drug therapy.
[…] […] Upon inhibition of the uPA activation cascade, the subsequent cell surface uPA activity-dependent translocation of LF into the cytoplasm is inhibited. ATP-Lite is used to measure intracellular ATP concentrations, which remain increased if LF entry into the cytoplasm is inhibited. This validation assay was performed using a small set of validation compounds.
NIH Chemical Genomics Center [NCGC]
NIH Molecular Libraries Probe Centers Network [MLPCN]
Assay Submitter (PI): Thomas Bugge, National Institute of Dental and Craniofacial Research, NIH
Cultured RAW 264.7 were dispensed into 1536-well clear bottom, white walled tissue culture plates at a density of 4000 cells/well and were incubated overnight (12-16 h) at 37 C in a 5% CO2 incubator. Serially diluted compounds in 23 nl DMSO were added to cells. […] Compound and reagent-treated plates were incubated for 24 h at 37 C in a 5% CO2 incubator. Perkin Elmer ATPlitetrade mark 1 step (3 ul) was then added to each well. Luminescence was detected using a Perkin Elmer ViewLuxtrade mark plate reader.
1.Dispensing RAW 264.7 cells into 1536-well, white walled tissue culture plates at a density of 4000 cells/well (4 uL).
2.Incubation at 37 C in a 5% CO2 incubator overnight.
3.Serially diluting compounds (1:5 serial dilution; 0.0024 uM to […] final concentration) in 23 nl DMSO.
5.Incubating the compound and reagent-treated plates for 24 hours at 37 C in a 5% CO2 incubator.
6.Adding ATP-Lite (3 ul).
7.Reading plates by ViewLux with an exposure length of 5 seconds.
On the % scale 0 is the no-effect control and ±100 the full control effect; potency means the concentration at half of the fitted maximal effect.

Row | Compound | activity change, negative = inhibition | Potency
1 | CCCCCOc1ccc(NP(C)(=O)Oc2ccc(Cl)cc2Cl)cc1 (centres undefined) | inactive: -3.16% | 
2 | CP(=O)(Nc1ccccc1)Oc1ccc(F)cc1 (centres undefined) | inactive: 3.1% | 
3 | CCN(CC)CCCOC(=O)C(O)(c1ccccc1)C1CCCCC1 (centres undefined) | inactive: 4.04% | 
4 | Cc1c([N+](=O)[O-])cc([N+](=O)[O-])c(Br)c1[N+](=O)[O-] | inactive: 0.259% | 
5 | COc1ccc(OP(C)(=O)Nc2ccc(SC(F)(F)F)cc2)cc1 (centres undefined) | inactive: 11.9% | 
6 | CCOC(=O)c1ccc(NP(C)(=O)Oc2ccc(F)cc2)cc1 (centres undefined) | inactive: -1.73% | 
7 | O=C(OCCN1CCN(CCOCc2ccccc2)CC1)C(O)(c1ccccc1)c1ccccc1 | inactive: -1.52% | 
8 | CC(C)c1ccc(OP(C)(=O)Nc2ccc(SC(F)(F)F)cc2)cc1 (centres undefined) | inactive: -5.69% | 
9 | CP(=O)(Nc1ccccc1F)Oc1ccccc1 (centres undefined) | inactive: 8.49% | 
10 | Cc1ccccc1NP(C)(=O)Nc1ccccc1C | inactive: -3.3% | 
11 | CP(=O)(Nc1ccc2c(c1)OCCO2)Oc1ccccc1 (centres undefined) | inactive: 3.81% | 
12 | CCOP(C)(=S)SCC(=O)NC(C)(CC)C(=O)O (centres undefined) | inactive: -3.63% | 
13 | CP(=O)(Nc1ccc(SC(F)(F)F)cc1)Oc1ccc(F)cc1 (centres undefined) | inactive: 10.4% | 
14 | Cc1c(C(c2ccc3c(c2)OCO3)c2c(C)n(C)n(-c3ccccc3)c2=O)c(=O)n(-c2ccccc2)n1C.O=[N+]([O-])c1cc([N+](=O)[O-])c(O)c([N+](=O)[O-])c1 | inactive: -4.07% | 
15 | Cc1cc(-c2cccc3ccccc23)c(C)cn1.O=[N+]([O-])c1cc([N+](=O)[O-])c(O)c([N+](=O)[O-])c1 | inactive: -3.62% | 
16 | O=[N+]([O-])c1ccc(OP2(=O)COCCO2)cc1 (centres undefined) | inactive: 3.18% | 
17 | COc1ccc(NP(C)(=O)Oc2ccccc2OC)cc1 (centres undefined) | inactive: 0.384% | 
18 | CN(C)CCOC(=O)C(O)(c1ccccc1)C1CCCCC1 (centres undefined) | inactive: 1.77% | 
19 | COc1ccc(OP(C)(=O)Nc2cccc(Br)c2)cc1 (centres undefined) | inactive: -1.05% | 
20 | CCOC(=O)c1ccc(NP(C)(=O)Oc2ccc(Cl)cc2)cc1 (centres undefined) | inactive: 7.91% | 
21 | Nc1ccc2c(ccc3cccnc32)n1.O=[N+]([O-])c1cc([N+](=O)[O-])c(O)c([N+](=O)[O-])c1 | inactive: -18.3% | 

Row | Compound | activity change, negative = inhibition | Potency
22 | CN(C)C(=O)c1c([N+](=O)[O-])cc([N+](=O)[O-])cc1[N+](=O)[O-] |  | active: 10 µM
23 | CP(=O)(Nc1ccc(Cl)cc1)Oc1ccc(F)cc1 (centres undefined) | inactive: -6.42% | 
24 | COc1ccccc1OP(C)(=O)Nc1ccccc1Br (centres undefined) | inactive: 2.22% | 
25 | CP(=O)(Oc1ccccc1)N1CCOC1=O (centres undefined) | inactive: 5.55% | 
26 | CCc1ccc(OP(C)(=O)Nc2cccnc2)cc1 (centres undefined) | inactive: 4.33% | 
27 | COc1ccccc1OP(C)(=O)Nc1c(C)n(C)n(-c2ccccc2)c1=O (centres undefined) | inactive: 5.49% | 
28 | O=C(OCCCN1CCCC1)C(O)(c1ccccc1)C1CCCCC1 (centres undefined) | inactive: -4.65% | 
29 | CCN(CC)CC(O)COC(=O)C(O)(c1ccccc1)C1CCCCC1 (centres undefined) | inactive: -2.79% | 
30 | COc1ccc(OP(C)(=O)Nc2ccc(Br)cc2)cc1 (centres undefined) | inactive: 8.88% | 
31 | CCc1ccc(OP(C)(=O)O)cc1 | inactive: 6.69% | 
32 | CP(=O)(Nc1ccccn1)Oc1ccccc1 (centres undefined) | inactive: 1.46% | 
33 | COc1ccccc1OP(C)(=O)Nc1ccc(C)cc1C (centres undefined) | inactive: 1.77% | 
34 | O=[N+]([O-])c1cc([N+](=O)[O-])c(Nc2ccccn2)c([N+](=O)[O-])c1 | inactive: -20.9% | 
35 | Cc1c(NP(C)(=O)Oc2ccc(C(C)C)cc2)c(=O)n(-c2ccccc2)n1C (centres undefined) | inactive: 1.98% | 
36 | CN(C)CCOC(=O)C(O)(c1ccccc1)C1CCCC1 (centres undefined) | inactive: 2.79% | 
37 | COc1ccc(OP(C)(=O)Nc2ccccn2)cc1 (centres undefined) | inactive: -0.27% | 
38 | COc1ccccc1OP(C)(=O)Nc1ccc(Br)cc1 (centres undefined) | inactive: 4.27% | 
39 | CP(=O)(OCCOc1ccccc1)OCCOc1ccccc1 | inactive: -0.0087% | 
40 | CCCCCCCCCCCCCCCC1C[N+](C)(C)CCOP(C)(=O)O1 (centres undefined) | inactive: -0.832% | 
41 | CP(=O)(Nc1ccc(Cl)cc1Cl)Oc1ccccc1 (centres undefined) | inactive: -5.05% | 
42 | COc1ccc(OP(C)(=O)Nc2ccccc2Br)cc1 (centres undefined) | inactive: -1.63% | 

Row | Compound | activity change, negative = inhibition | Potency
43 | COc1ccccc1OP(C)(=O)Nc1ccc(C)c(C)c1 (centres undefined) | inactive: -1.42% | 
44 | Cc1cc(C)cc(OP(C)(=O)Nc2cccc(C(F)(F)F)c2)c1 (centres undefined) | inactive: 3.79% | 
45 | COc1ccccc1OP(C)(=O)Nc1cc(Cl)ccc1C (centres undefined) | inactive: -13.5% | 
46 | COc1ccc(OP(C)(=O)Nc2cccc(F)c2)cc1 (centres undefined) | inactive: -0.0429% | 
47 | Cc1cc(C)cc(OP(C)(N)=O)c1 (centres undefined) | inactive: 6.18% | 
48 | CCOC(=O)c1ccc(NP(C)(=O)Oc2ccccc2)cc1 (centres undefined) | inactive: 0.793% | 
49 | COc1ccccc1OP(C)(=O)Nc1ccc(C)cc1 (centres undefined) | inactive: -5.56% | 
50 | Cc1ccc(NP(C)(=O)Oc2ccccc2)c(C)c1 (centres undefined) | inactive: 8.16% | 
51 | CC(C)(C)c1ccc(OP(C)(=O)Nc2ccc(SC(F)(F)F)cc2)cc1 (centres undefined) | inactive: 8.52% | 
52 | Cc1cccc(C)c1OP(C)(N)=O (centres undefined) | inactive: 3.89% | 
53 | O=[N+]([O-])c1ccc2c(c1)C=Nc1ccccc1O2 | inactive: -9.94% | 
54 | O=[N+]([O-])c1cc([N+](=O)[O-])c(Nc2cccnc2)c([N+](=O)[O-])c1 |  | active: 12.6 µM
55 | CCN(CC)CCCOC(=O)C(O)(c1ccccc1)c1ccccc1 | inactive: 15% | 
56 | CP(=O)(Nc1ccccn1)Oc1ccc(Cl)cc1 (centres undefined) | inactive: -3.19% | 
57 | CCOP(C)(=S)SCC(=O)NC(C)C(=O)O (centres undefined) | inactive: -5.09% | 
58 | CCOC(=O)c1ccc(NP(C)(=O)Oc2ccc(OC)cc2)cc1 (centres undefined) | inactive: -4.5% | 
59 | O=[N+]([O-])c1cc([N+](=O)[O-])c(O)c([N+](=O)[O-])c1.c1ccc(Oc2ccncc2)cc1 | inactive: 0.974% | 
60 | CCc1ccc(OP(C)(=O)N2CCN(c3ccc([N+](=O)[O-])cc3)CC2)cc1 (centres undefined) | inactive: -2.94% | 
61 | CP(=O)(NC(=O)Nc1ccccc1)Oc1ccccc1 (centres undefined) | inactive: 0.0616% | 
62 | Cc1cc(C)cc(OP(C)(=O)Nc2ccc(SC(F)(F)F)cc2)c1 (centres undefined) | inactive: 12.9% | 
63 | Cc1cccc(C)c1OP(C)(=O)Nc1ccc(SC(F)(F)F)cc1 (centres undefined) | inactive: 2.26% | 

Row | Compound | activity change, negative = inhibition | Potency
64 | CP(=O)(Nc1ccc(SC(F)(F)F)cc1)Oc1ccc(Cl)cc1 (centres undefined) | inactive: 10.8% | 
65 | CP(=O)(Oc1ccccc1)OC(c1ccccc1)C(F)(F)F (centres undefined) | inactive: 3.27% | 
66 | COc1ccccc1OP(C)(=O)Nc1ccccc1 (centres undefined) | inactive: -3.43% | 
67 | CP(=O)(Nc1ccccc1Br)Oc1ccccc1 (centres undefined) | inactive: -3.76% | 
68 | CP(=S)(Nn1cnnc1)Oc1ccccc1 (centres undefined) | inactive: -10% | 
69 | CP(=O)(Nc1ccc(SC(F)(F)F)cc1)Oc1ccccc1 (centres undefined) | inactive: -4.85% | 
70 | CCCOc1ccc(NP(C)(=O)Oc2ccc(Cl)cc2)cc1 (centres undefined) | inactive: 1.47% | 
71 | COc1ccccc1OP(C)(=O)Nc1c(C)cccc1C (centres undefined) | inactive: -4.86% | 
72 | CN1CCCCC1COC(=O)C1(O)c2ccccc2CCc2ccccc21 (centres undefined) | inactive: -2.44% | 
73 | O=[N+]([O-])c1cc([N+](=O)[O-])c(Nc2nnnn2CCO)c([N+](=O)[O-])c1 | inactive: 5% | 
74 | CC1=C2N=C(C=C3N=C(C(C)=C4[N-][C@@](C)([C@@H]5N=C1[C@](C)(CCC(=O)NC[C@@H](C)OP(=O)([O-])O[C@H]1[C@@H](O)[C@@H](n6cnc7cc(C)c(C)cc76)O[C@@H]1CO)[C@H]5CC(N)=O)[C@@](C)(CC(N)=O)[C@@H]4CCC(N)=O)[C@@](C)(CC(N)=O)[C@@H]3CCC(N)=O)C(C)(C)[C@@H]2CCC(N)=O.[C-]#N.[Co+3] | inactive: -7.28% | 
75 | Cc1nc2ccc3ccccc3c2s1.O=[N+]([O-])c1cc([N+](=O)[O-])c(O)c([N+](=O)[O-])c1 | inactive: 2.81% | 
76 | O=[N+]([O-])c1cc([N+](=O)[O-])c(-c2cnn(-c3ccccc3)c2)c([N+](=O)[O-])c1 | inactive: -4.13% | 
77 | O=[N+]([O-])c1cc([N+](=O)[O-])c(-n2nnc3ccccc32)c([N+](=O)[O-])c1 | inactive: -0.0791% | 
78 | CP(=O)(Nc1cccc(Br)c1)Oc1ccccc1 (centres undefined) | inactive: -2.11% | 
79 | Cc1cc(C)cc(OP(C)(=O)Nc2ccccn2)c1 (centres undefined) | inactive: -0.32% | 
80 | Cc1ccc(C)c(NP(C)(=O)Oc2ccccc2)c1 (centres undefined) | inactive: -6.41% | 
81 | Cc1cc(C)cc(OP(C)(=O)Nc2ccc(C)cc2C)c1 (centres undefined) | inactive: -2.12% | 
82 | CCOC(=O)c1ccc(NP(C)(=O)Oc2cc(C)cc(C)c2)cc1 (centres undefined) | inactive: -8.66% | 
83 | COc1ccccc1OP(C)(=O)Nc1cccc(Br)c1 (centres undefined) | inactive: 2.69% | 
84 | CC1=NCCc2c1[nH]c1ccccc21.O=[N+]([O-])c1cc([N+](=O)[O-])c(O)c([N+](=O)[O-])c1 | inactive: -1.96% | 
